Source: patent US20030004140A1, “Methods for modulating cell-adhesion mediated drug resistance” (priority 2000, published 2003)

Test system: BCR/ABL-associated tyrosine kinase activity
Experiment: Anti-phosphotyrosine Western blotting
Settings: K562 cells, 20 μM, 4 hour treatment

COC(=O)c1ccc(NCc2cc(O)ccc2O)cc1 [AG957]
BCR/ABL associated tyrosine phosphorylation: abrogates all phosphotyrosine activity with the exception of the 80 kda protein
